Results on six molecules are retold here after ChEMBL document CHEMBL4680180, “Discovery of 3-((dimethylamino)methyl)-4-hydroxy-4-(3-methoxyphenyl)-N-phenylpiperidine-1-carboxamide as novel potent analgesic” (2020).

Chains of the proteins cited; added tags and fusions are not shown. Lines headed by an entry give the natural chain unless they say otherwise; changes in a name come on top.
UniProt P33533, whole entry, looked up: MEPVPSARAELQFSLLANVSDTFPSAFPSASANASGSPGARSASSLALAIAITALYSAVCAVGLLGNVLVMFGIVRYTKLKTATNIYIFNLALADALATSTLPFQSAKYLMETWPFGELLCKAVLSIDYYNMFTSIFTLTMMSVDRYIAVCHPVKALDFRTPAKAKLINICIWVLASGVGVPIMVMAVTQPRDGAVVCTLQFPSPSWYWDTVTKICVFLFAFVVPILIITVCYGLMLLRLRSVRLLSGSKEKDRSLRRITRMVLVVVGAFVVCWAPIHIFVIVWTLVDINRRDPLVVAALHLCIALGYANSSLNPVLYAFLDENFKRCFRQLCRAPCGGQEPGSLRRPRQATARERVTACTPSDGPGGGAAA
UniProt P33535, whole entry, looked up: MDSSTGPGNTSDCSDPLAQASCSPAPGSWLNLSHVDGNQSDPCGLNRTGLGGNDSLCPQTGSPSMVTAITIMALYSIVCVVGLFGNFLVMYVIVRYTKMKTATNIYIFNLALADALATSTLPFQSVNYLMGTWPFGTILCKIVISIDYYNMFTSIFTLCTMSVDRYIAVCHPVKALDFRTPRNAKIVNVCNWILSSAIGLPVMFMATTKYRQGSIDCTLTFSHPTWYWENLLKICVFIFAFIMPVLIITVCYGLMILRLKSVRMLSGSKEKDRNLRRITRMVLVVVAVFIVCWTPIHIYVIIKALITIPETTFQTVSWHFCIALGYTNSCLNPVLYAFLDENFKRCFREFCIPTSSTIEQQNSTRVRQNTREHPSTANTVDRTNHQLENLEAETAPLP
UniProt P41145: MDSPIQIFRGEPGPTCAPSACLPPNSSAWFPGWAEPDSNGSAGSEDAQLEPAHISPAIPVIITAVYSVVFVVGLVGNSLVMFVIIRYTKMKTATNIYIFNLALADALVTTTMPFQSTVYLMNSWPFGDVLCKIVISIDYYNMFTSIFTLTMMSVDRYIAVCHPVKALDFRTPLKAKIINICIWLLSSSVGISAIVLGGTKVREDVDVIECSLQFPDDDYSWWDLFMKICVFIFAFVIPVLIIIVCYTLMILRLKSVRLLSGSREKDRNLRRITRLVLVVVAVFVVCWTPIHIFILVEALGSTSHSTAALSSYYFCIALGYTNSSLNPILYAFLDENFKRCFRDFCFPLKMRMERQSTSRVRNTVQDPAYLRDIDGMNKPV

The structures appear in SMILES notation.

In experiment [1] the target is T1, Delta-type opioid receptor (Rattus norvegicus, UniProt P33533). Nature of the experiment: Displacement of [3H]-DPDPE from rat delta opioid receptor expressed in CHO cells incubated for 30 mins by liquid scintillation counting method. On the technique in general: Displacement assays read how much labelled ligand stays bound in the presence of the test substance.

The target of experiment [2] is T2, Mu-type opioid receptor (Rattus norvegicus, UniProt P33535). Nature of the experiment: Displacement of [3H]-DAMGO from rat mu opioid receptor expressed in CHO cells incubated for 30 mins by liquid scintillation counting method.
The target in experiment [3] is T3, Kappa-type opioid receptor (Homo sapiens, UniProt P41145). Nature of the experiment: Displacement of [3H]-U69593 from human kappa opioid receptor expressed in CHO cells incubated for 30 mins by liquid scintillation counting method.
Experiment [4] deals with T3, Kappa-type opioid receptor. The experiment is described as follows: Agonist activity at human kappa opioid receptor expressed in CHO cells incubated for 1 hr by [35S]GTPgammaS binding based liquid scintillation counting method. A general note: GTPγS resists hydrolysis and so accumulates on activated G proteins.
Experiment [5] concerns the target T1, Delta-type opioid receptor. The experiment is described as follows: Agonist activity at rat delta opioid receptor expressed in CHO cells incubated for 1 hr by [35S]GTPgammaS binding based liquid scintillation counting method.
The target in experiment [6] is T2, Mu-type opioid receptor. Nature of the experiment: Agonist activity at rat mu opioid receptor expressed in CHO cells incubated for 1 hr by [35S]GTPgammaS binding based liquid scintillation counting method.

As a reminder, the Ki is a measure of affinity in units of concentration, obtained from inhibition or displacement. A lower Ki goes with tighter binding. For the molecule `CN(C)CC1CN(C(=O)Nc2ccccc2)CCC1(O)c1ccccc1` (stereo not drawn), the Ki turned out to be 849 nM in experiment [1], 7.3 nM in experiment [2] and 49.1 nM in experiment [3].
Broadly, the EC50 is the midpoint of the concentration-response curve. Lower therefore signals a more potent agent. For the molecule `CN(C)CC1CN(C(=O)Nc2ccccc2)CCC1(O)c1cccc(O)c1` (stereo not drawn), the results for the EC50 in experiment [4], in experiment [5] and in experiment [6] were 110 nM, 112 nM and 2.3 nM, respectively. Also, the Ki in experiment [1] came out at 104 nM; in experiment [2], 1.2 nM; in experiment [3], 71.4 nM.
On to `CC1(C)SSC(C)(C)[C@@H](NC(=O)[C@@H](N)Cc2ccc(O)cc2)C(=O)NCC(=O)N[C@@H](Cc2ccccc2)C(=O)N[C@H]1C(=O)O`, for which the EC50 result in experiment [4] and in experiment [6] was “Not Active” in each case.
Turning to `CN(C)CC1CN(C(=O)Nc2cccc(Cl)c2)CCC1(O)c1ccccc1` (stereo not drawn), the inhibition constant Ki was found to be 537 nM in experiment [1], 14.1 nM in experiment [2] and 719 nM in experiment [3].
Regarding `C[C@@H](NC(=O)[C@@H](N)Cc1ccc(O)cc1)C(=O)NCC(=O)N(C)[C@@H](Cc1ccccc1)C(=O)NCCO`, the half-maximal effective concentration (EC50) entry in experiment [4] and in experiment [5] was “Not Active” in each case.
Take `CN(C)C[C@H]1CCCC[C@]1(O)c1cccc(O)c1`: the concentration giving a half-maximal response (EC50) result in experiment [4] and in experiment [5] was “Not Active” each time.
